The entries are a selection whose mix differs from that of the whole data set. Some results for these compounds are left out of this collection, so the calls shown say nothing about other tests. Results filed as inconclusive are left out. The source made the active and inactive calls. Calls follow the shape of the dose curve; as a rule, active = well fitted activation curve with a large enough effect in the repeat runs; inconclusive = weak or mixed curves; inactive = flat fitted curve, though single readings scatter.
Each molecule was assayed against Nuclear receptor subfamily 1 group I member 2 (Homo sapiens) (UniProt O75469) (assay: Human pregnane X receptor (PXR) activation by small molecules, qHTS assay). Details: DPX-2 HepG2 CYP3A4-luciferase, 24 h.
Text: National Center for Advancing Translational Sciences [NCATS]
NIH Chemical Genomics Center [NCGC]
U.S. Environmental Protection Agency [EPA]
National Institutes of Environmental Health Sciences [NIEHS]
National Toxicology Program [NTP]
The Pregnane X receptor (PXR), a ligand activated nuclear receptor plays a critical role in the regulation of genes involved in drug metabolism and transporters. Activation of PXR may be involved in the unwanted adverse drug-drug interactions. […] Therefore, identification of compounds with the potential for PXR activation can be of importance in improving the efficacy of drugs with less toxicity and avoiding drug-drug interactions.
DPX-2 (Puracyp, Inc.) cell lines, used for screening against human PXR activation has HepG2 cells co-transfected with a PXR response element and a luciferase construct containing CYP3A4 promoter. Increase in luciferase activity can be used to identify the compounds that activate the PXR pathway.
DPX-2 cells were dispensed at 2,000 cells per well in 5uL of assay medium into white, solid-bottom 1536-well plates using a Multidrop Combi dispenser (Thermo Scientific). […] Then 5ul One-Glo assay reagent (Promega) was added to each plate by a Flying Reagent Dispenser (FRD, Aurora Discovery) and following 30 min incubation at room temperature, luciferase activity was quantified on a ViewLux plate reader (Perkin Elmer).
Also: nearly all actives have a fitted effect of over 40% in size.
Potency is read from the fitted curve at half-maximal effect.

CN1CCCC(OC(=O)C(O)(c2ccccc2)c2ccccc2)C1 (stereo unspecified) was tested. Which Potency did it give?
The Potency was active: 15.8 µM.
